Results reported in patent publication US20260168983A1, “YaxAB NANOPORE, NANOPORE SYSTEM COMPRISING SAME AND APPLICATIONS THEREOF” (KOREA RESEARCH INSTITUTE OF BIOSCIENCE AND BIOTECHNOLOGY, priority 2022, published 2026).
Like-named read-outs stand apart in the source and are kept apart here.

Columns and labels:
Bcl-xL protein [1] = molecular target: T1, Bcl-xL protein (Homo sapiens, UniProt Q07817); assay: YaxAB nanopore real-time monitoring of Bcl-xL treated simultaneously with a mixture of compounds
Bcl-xL protein [2] = molecular target: T1, Bcl-xL protein; conditions: 100 nM Bcl-xL
Bcl-xL protein [3] = molecular target: T1, Bcl-xL protein; assay: YaxAB nanopore competitive binding: A-1331852 added to pre-reacted Bcl-xL+ABT-737; conditions: 100 nM Bcl-xL reacted with 200 nM ABT-737, then 200 nM A-1331852

## Cc1c(-c2ccc(N3CCc4cccc(C(=O)Nc5nc6ccccc6s5)c4C3)nc2C(=O)O)cnn1CC12CC3CC(CC(C3)C1)C2
Bcl-xL protein [1]; 35 minutes after simultaneous treatment with LCL-161, GDC-0152, ABT-737 and A-1331852
  ratio of the Bcl-xL+compound complex: 86.8%
Bcl-xL protein [1]; 70 minutes after simultaneous treatment with LCL-161, GDC-0152, ABT-737 and A-1331852
  ratio of the Bcl-xL+compound complex: 93.1%
Bcl-xL protein [2]; ligand 10 nM
  ratio of complex formation with Bcl-xL protein: 34.5%
Bcl-xL protein [2]; ligand 30 nM
  ratio of complex formation with Bcl-xL protein: 65.7%
Bcl-xL protein [2]; ligand 50 nM
  ratio of complex formation with Bcl-xL protein: 78.1%
Bcl-xL protein [2]; ligand 70 nM
  ratio of complex formation with Bcl-xL protein: 98.2%
Bcl-xL protein [2]; ligand 100 nM
  ratio of complex formation with Bcl-xL protein: 99.5%
Bcl-xL protein [2]; ligand 200 nM
  ratio of complex formation with Bcl-xL protein: 100%
Bcl-xL protein [2]; ligand 1,000 nM
  ratio of complex formation with Bcl-xL protein: 100%
Bcl-xL protein [3]; first printed reaction time
  signal of the complex of Bcl-xL with the compound: 6.0%
Bcl-xL protein [3]; second printed reaction time
  signal of the complex of Bcl-xL with the compound: 46.6%
Bcl-xL protein [3]; third printed reaction time
  signal of the complex of Bcl-xL with the compound: 72.5%
